{"source": "patent US8614182B2", "about": "“GLP-1 analogues and their pharmaceutical salts and uses” (Jiangsu Hansoh Pharmaceuticals Co., Ltd., priority 2009, dated 2013)", "origin": "cited, not measured here", "details": "cited from earlier work", "data": [{"substance": "glucose-dependent insulinotropic polypeptide [GIP]", "values": [{"measurement": "in vivo half-life", "result": "5 to 7", "unit": "min"}]}]}
